Experimental data: patent publication US20110263664A1, “Inhibitors of PIM-1 Protein Kinases, Compositions and Methods for Treating Prostate Cancer” (MUSC FOUNDATION FOR RESEARCH DEVELOPMENT, priority 2007, published 2011)

Chains of the proteins cited; added tags and fusions are not shown.
UniProt P11309, whole entry: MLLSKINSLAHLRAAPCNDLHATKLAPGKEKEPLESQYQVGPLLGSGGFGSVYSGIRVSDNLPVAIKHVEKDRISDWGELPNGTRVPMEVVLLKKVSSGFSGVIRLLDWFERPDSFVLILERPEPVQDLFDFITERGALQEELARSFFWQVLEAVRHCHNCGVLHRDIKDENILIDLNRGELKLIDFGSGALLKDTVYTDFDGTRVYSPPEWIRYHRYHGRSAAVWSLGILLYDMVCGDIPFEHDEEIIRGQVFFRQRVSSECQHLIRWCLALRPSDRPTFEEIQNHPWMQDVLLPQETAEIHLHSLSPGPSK

What was measured:
[1] = tested on: Cdk2 activity in K562 cells; settings: K562 cells treated 72 hours, 10% FCS; histone H1 as substrate
[2] = tested on: Human prostate cancer PC3 cells; assay: Cytotoxicity assay (MTS), PC3 cells, Table 3; settings: PC-3, 48 h, read-out: IC50 (PC3 cell assay)
[3] = biological target: PIM1 (Homo sapiens, UniProt P11309); assay: Pim-1 protein kinase assay (Procedure 1), Table 1; assay type: biochemical; design: purchased Upstate 14-573

| Compound | decreased Cdk2 activity [1] [%] | IC50 [2] [µM] | IC50 [3] [µM] |
| --- | --- | --- | --- |
| O=C1NC(=O)/C(=C/c2cccc(C(F)(F)F)c2)S1 [Compound D5] | ~50 |  |  |
| O=C1NC(=O)/C(=C/c2ccc(Br)cc2)S1 [Compound D11] |  | 85 ± 12 |  |
| COc1ccc(/C=C2/C(=O)NC(=O)N2Cc2ccccc2)cc1 [Compound D28] |  | 74 ± 20 | 38 ± 23 |
| CCOc1ccc(/C=C2/C(=O)NC(=O)N2Cc2ccccc2)cc1 [Compound D29] |  | 18 ± 9 | 73 ± 7.5 |
| CN(C)c1ccc(/C=C2/C(=O)NC(=O)N2Cc2ccccc2)cc1 [Compound D31] |  | 57 ± 23 |  |
